Compound activity: PubChem BioAssay, National Center for Advancing Translational Sciences (NCATS)
Only some compounds are listed: those with a hit (about 2.5% of all), similar ones and a draw of the others.
rTrxR1 inhibitor = rat TrxR1 inhibition; O89049; recombinant rTrxR1, NADPH fluorescence consumption, selenite substrate; Potency, µM (doses to about 114 µM), without a hit: at the top dose activity change, negative = inhibition, most hits filed as inhibitors; actives 1% (n = 390,000); AID 588453; note: potency is the fitted concentration of half-maximal effect; % is set by controls: 0 for no effect and ±100 for the full control effect; nearly all actives have a fitted effect of over 65% in size
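Rat TrxR1 (90 nM in the dispensed reagent) was pre-reduced with 400 uM NADPH for 5 min at room temperature, then incubated with compound for 15 min. After 400 uM selenite was added, NADPH fluorescence (Ex 340/Em 450 nm) was followed for 8 min.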
TrxR1 substrate = substrates of rat thioredoxin reductase 1; O89049; purified TrxR1 substrate turnover, NADPH consumption readout; Potency, µM (series often up to 114 µM), for the others: at the highest dose activity change, negative = substrate turnover; actives 0.01% (n = 390,000); note: potency is the fitted concentration of half-maximal effect; % is set by controls: 0 for no effect and ±100 for the full control effect; nearly all actives have a fitted effect of over 50% in size
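Rat TrxR1, dispensed at 90 nM, was prereduced with 400 uM NADPH (final) for 5 min at ~22 deg C, then incubated with compound 15 min before 400 uM selenite. A first-read NADPH fluorescence drop versus no-compound background flagged substrates.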
Anesthetic bind = binds horse apoferritin like a general anesthetic. apoferritin/1-aminoanthracene competitive binding, fluorescence. P02791. actives 0.074% (n = 350,000). AID 485281. Potency, µM (top dose mostly 77.5 µM), for inactives: at the highest dose activity change, negative = displacement, usual class: inhibitors; note: potency is the fitted concentration of half-maximal effect; % is set by controls: 0 for no effect and ±100 for the full control effect; nearly all actives have a fitted effect of over 20% in size
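Apoferritin-based anesthetic binding model; compound displacement of fluorescent 1-AMA measured as endpoint fluorescence after 10 minutes at room temperature, scaled to free-ligand and complex controls.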
ClpP mod = qHTS Assay for Activators of ClpP; ATP-dependent Clp protease proteolytic subunit (Bacillus subtilis (strain 168)), P80244; purified B. subtilis ClpP, FRET peptide cleavage, 20 min; Potency, µM (top dose mostly 57.5 µM), for inactives: at the highest dose activity change, negative = active; actives 1.9% (n = 340,000); active = well fitted falling curve with a large enough effect; inconclusive = small, poorly fitted or top-dose-only effect; inactive = no such curve, though single readings can be large or run the other way; note: potency is the fitted concentration of half-maximal effect; the source files actives as falling curves though it sought activators and does not explain the sign; nearly all actives have a fitted effect of over 65% in size
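Buffer: 100 mM Tris/HCl pH8, 100 mM KCl, 0.05% low protease BSA, 2.5% glycerol, 0.01% Tween-20. ClpP 10 microg/mL final; 20 min RT; delta FRET normalized to ADEP and DMSO controls.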
miR-21 reporter = raises the signal of a miR-21 reporter | HeLa miR-21 FLuc reporter, luciferase, 48 h | Potency, µM (doses to about 38.3 µM), without a hit: at the top dose reporter change, positive = more light | 340,000 tested, under 10 active | AID 2288; active = well fitted rising curve with a large enough effect; inconclusive = small, poorly fitted or top-dose-only effect; inactive = no such curve, though single readings can be large or run the other way;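 note: % of control where 0% means no effect; miR-21 action dims this reporter so a rising signal means less miR-21 action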
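HeLa cells endogenously expressing miR-21, stably carrying CMV-driven firefly luciferase with a downstream miR-21 binding site, 2000 cells/well. Titrations up to approximately 40 uM, 48 hours; luciferase luminescence read.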
Numbers without * were called inactive; ? = inconclusive; · = no result; [ ] = remark or other dose. Unless noted, calls come from the whole dose curve; as a rule, active = well fitted curve in the direction sought with a large enough effect; inconclusive = small, poorly fitted or top-dose-only effect, or another doubt; inactive = no such curve, though single readings can be large; an effect the other way counts as inactive or inconclusive.

Results follow in this order: miR-21 reporter, Anesthetic bind, TrxR1 substrate, rTrxR1 inhibitor, ClpP mod
[1] O=C(C1=C(O)C(=O)N(CCN2CCOCC2)C1c1cccc(O)c1)c1cc2ccccc2o1 (stereo not drawn)
 : -2%, -12%, -3%, 50µM*, 13%
[2] CCOc1ccc(C2C(C(=O)c3ccc(C)o3)=C(O)C(=O)N2CCN2CCOCC2)cc1OC (stereo not drawn)
 : -9%, -13%, -7%, 56µM*, 2%
[3] O=C(C1=C(O)C(=O)N(CCN2CCOCC2)C1c1cccc(F)c1)c1cc2ccccc2o1 (stereo not drawn)
 : -3%, -13%, -12%, ?, -1%
[4] CCOc1ccc(C2C(C(=O)c3ccco3)=C(O)C(=O)N2CCN2CCOCC2)cc1OCC (stereo not drawn)
 : -2%, -7%, -7%, ?, 6%
[5] Cc1nn(-c2ccc(N3CCCC3)nn2)c(C)c1CCC(=O)N1CCN(c2ccccc2)CC1
 : 2%, -10%, -1%[57.1 µM], 17%[57.1 µM], -3%
[6] CCOc1ccc(NC(=O)Cn2cc(C(=O)c3ccc(OCC)cc3)c(=O)c3cc4c(cc32)OCCO4)cc1
 : 5%, 0%, -6%, 4%, -3%
[7] O=C(NCC(c1cccnc1)N1CCc2ccccc21)c1ccc(F)cc1 (stereo not drawn)
 : 1%, 49%, -12%, -17%, 1%
[8] COc1ccc(S(=O)(=O)NC(C)C)cc1C(=O)N1CCOCC1
 : 0%, 3%, 5%[57.1 µM], 14%[57.1 µM], 28µM*
[9] COc1ccc(S(=O)(=O)N2CCCCC2)cc1C(=O)N1CCCCCC1
 : ·, ·, -4%, -7%, 14µM*
[10] COc1ccc(S(=O)(=O)N2CCCC2)cc1C(=O)N1CCCCC1
 : -6%, -2%, -5%, 3%, -5%
[11] Cc1cccc(CSc2nc(=O)c3c(n2C)NC(=O)CC3c2cc(F)cc(F)c2)c1 (stereo not drawn)
 : -2%, -1%, -11%, -16%, -3%
[12] COc1cc2nc(CC(O)c3nc4cc(OC)c(OC)cc4[nH]3)[nH]c2cc1OC (stereo not drawn)
 : ·, ·, 12%, 25%, -11%
[13] CN1c2ccccc2-c2nc3ccccc3n2C1c1ccccn1 (stereo not drawn)
 : -9%, 109%, 142%[57.1 µM], 29%[57.1 µM], -1%
[14] CN1c2ccccc2-c2nc3ccccc3n2C1c1ccncc1 (stereo not drawn)
 : -1%, -2%, 13%, -18%, 20µM*
[15] N#Cc1cccc(NC(=O)COC(=O)Cn2nc(-c3ccccc3)oc2=O)c1
 : ·, ·, -4%, 23%, -3%
[16] Cc1cc(C)c(NC(=O)COC(=O)Cn2nc(-c3ccccc3)oc2=O)c(C)c1
 : ·, ·, -8%, -6%, 22µM*
[17] COc1cc(/C=C/c2nc(C#N)c(N3CCN(C)CC3)o2)cc(OC)c1OC
 : 2%, 86%, 219%, 1%, 5%
[18] CCCCNC(=O)c1cccc2c(=O)c(C)c(-c3ccccc3)oc12
 : -4%, -6%, -10%, -14%, 28µM*
[19] COC(=O)/C=C/c1ccccc1S(=O)(=O)NC(C)C
 : ·, ·, 4%, 4%, 1%
[20] N#CC1=C(N)N(c2ccccc2)C(c2ccccc2)C1(C#N)C#N (stereo not drawn)
 : -29%, -15%, 17%[57.1 µM], -10%[57.1 µM], 10µM*
[21] CCOC(=O)c1ccc(N2CCN(c3ccccc3F)CC2)c(NC(=O)Nc2cccc(OC)c2)c1
 : ?, 4%, 28%, 35%, 25µM*
[22] CCOC(=O)c1cnc2ccc(OCC)cc2c1N1CCN(c2ccccc2OC)CC1
 : 16%, -2%, -9%, -7%, -9%
[23] CCOC(=O)c1cnc2c(OC)cccc2c1N1CCN(c2ccccc2F)CC1
 : ?, 8.9µM*, -6%, 12%, -2%
[24] CCOC(=O)C1Nc2ccc(C(F)(F)F)cc2C2c3ccccc3CC12 (stereo not drawn)
 : ·, ·, -8%[57.1 µM], 8%[57.1 µM], 1%
[25] CCOC(=O)C1Nc2ccccc2C2C(O)C(O)CC12 (stereo not drawn)
 : ·, ·, -4%, 18µM*, -11%
[26] COC(=O)C1=C[C@@H](C(=O)OC)C2C3=C(C(=O)[C@]2(C)NC(=O)c2ccccc2)[C@H](C)[C@@H]2C(=O)N(C)C(=O)[C@@H]2[C@@H]3C1 (stereo partly drawn)
 : ·, 0%, -1%, 8%, ·

Four compounds drawn at random from the list so far, as already listed:
Results follow in this order: miR-21 reporter, Anesthetic bind, TrxR1 substrate, rTrxR1 inhibitor, ClpP mod
[2] CCOc1ccc(C2C(C(=O)c3ccc(C)o3)=C(O)C(=O)N2CCN2CCOCC2)cc1OC (stereo not drawn)
 : -9%, -13%, -7%, 56µM*, 2%
[9] COc1ccc(S(=O)(=O)N2CCCCC2)cc1C(=O)N1CCCCCC1
 : ·, ·, -4%, -7%, 14µM*
[24] CCOC(=O)C1Nc2ccc(C(F)(F)F)cc2C2c3ccccc3CC12 (stereo not drawn)
 : ·, ·, -8%[57.1 µM], 8%[57.1 µM], 1%
[8] COc1ccc(S(=O)(=O)NC(C)C)cc1C(=O)N1CCOCC1
 : 0%, 3%, 5%[57.1 µM], 14%[57.1 µM], 28µM*
